A word on the IC50: it is the midpoint of a concentration-inhibition curve.

The chains behind the UniProt entries cited, without tags or fusion partners. Where a name states a change or a piece, a line headed by the entry shows the natural chain unless it says otherwise.
UniProt O15379: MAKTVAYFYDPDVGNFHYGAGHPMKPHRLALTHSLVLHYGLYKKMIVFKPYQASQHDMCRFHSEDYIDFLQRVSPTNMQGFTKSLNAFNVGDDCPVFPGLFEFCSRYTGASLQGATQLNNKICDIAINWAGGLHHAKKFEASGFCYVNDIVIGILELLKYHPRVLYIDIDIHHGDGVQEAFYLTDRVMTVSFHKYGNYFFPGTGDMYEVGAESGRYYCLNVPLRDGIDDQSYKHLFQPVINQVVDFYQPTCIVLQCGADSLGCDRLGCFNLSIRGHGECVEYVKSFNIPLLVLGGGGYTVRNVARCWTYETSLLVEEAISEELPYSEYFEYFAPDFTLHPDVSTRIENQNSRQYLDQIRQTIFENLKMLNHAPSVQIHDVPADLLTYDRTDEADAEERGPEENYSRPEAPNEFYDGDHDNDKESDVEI
UniProt Q9UBN7: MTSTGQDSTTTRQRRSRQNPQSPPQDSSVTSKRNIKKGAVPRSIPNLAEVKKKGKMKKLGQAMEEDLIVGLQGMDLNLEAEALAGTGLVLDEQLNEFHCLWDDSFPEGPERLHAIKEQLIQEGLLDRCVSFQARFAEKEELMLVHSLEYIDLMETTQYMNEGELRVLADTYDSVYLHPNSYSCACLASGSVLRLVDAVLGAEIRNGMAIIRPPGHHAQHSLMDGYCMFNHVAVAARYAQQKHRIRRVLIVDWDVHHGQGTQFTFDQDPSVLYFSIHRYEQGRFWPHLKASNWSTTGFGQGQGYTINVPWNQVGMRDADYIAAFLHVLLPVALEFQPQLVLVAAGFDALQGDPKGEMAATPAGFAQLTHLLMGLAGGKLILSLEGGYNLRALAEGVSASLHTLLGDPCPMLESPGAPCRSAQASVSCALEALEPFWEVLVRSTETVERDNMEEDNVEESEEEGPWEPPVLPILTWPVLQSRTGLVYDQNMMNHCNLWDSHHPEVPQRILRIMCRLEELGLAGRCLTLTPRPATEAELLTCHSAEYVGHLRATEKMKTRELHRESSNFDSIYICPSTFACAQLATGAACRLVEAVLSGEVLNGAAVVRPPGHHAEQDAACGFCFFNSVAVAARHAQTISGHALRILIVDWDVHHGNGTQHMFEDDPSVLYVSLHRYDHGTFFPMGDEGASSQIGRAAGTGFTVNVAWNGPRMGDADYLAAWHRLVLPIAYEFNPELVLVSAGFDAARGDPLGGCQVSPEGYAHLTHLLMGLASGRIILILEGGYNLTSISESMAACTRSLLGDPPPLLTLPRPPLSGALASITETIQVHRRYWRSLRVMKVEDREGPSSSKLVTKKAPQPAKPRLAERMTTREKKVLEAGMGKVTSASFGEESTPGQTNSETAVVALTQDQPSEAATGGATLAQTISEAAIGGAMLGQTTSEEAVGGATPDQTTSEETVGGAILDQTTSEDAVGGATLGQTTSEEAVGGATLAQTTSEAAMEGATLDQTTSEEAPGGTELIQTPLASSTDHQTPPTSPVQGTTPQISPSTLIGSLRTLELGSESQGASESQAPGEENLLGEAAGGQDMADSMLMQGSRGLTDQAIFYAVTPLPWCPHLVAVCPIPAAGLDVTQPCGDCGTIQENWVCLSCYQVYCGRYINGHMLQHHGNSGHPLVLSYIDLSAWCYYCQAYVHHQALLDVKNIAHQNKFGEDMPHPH

Consider 42 compounds from patent US8609678B2, “Reverse amide compounds as protein deacetylase inhibitors and methods of use thereof” (Acetylon Pharmaceuticals, priority 2010, dated 2013).

The target of the first assay is HDAC3 (Homo sapiens (Human), UniProt O15379). Kind of assay: HDAC enzyme assay, HDAC3. The note with it: 0.08 ng/ml enzyme, 17 μM tripeptide substrate. Type of assay: biochemical.
For the compound `O=C(CCCCCCNC(=O)c1cccc(C(O)(c2ccccn2)c2ccccn2)c1)NO` [N-(7-(hydroxyamino)-7-oxoheptyl)-3-(hydroxydipyridin-2-ylmethyl)benzamide], the 50% inhibitory concentration (IC50) was 285 nM.

The target of another assay is HDAC6 (Homo sapiens (Human), UniProt Q9UBN7). Kind of assay: HDAC enzyme assay, HDAC6.
Conditions: not given
With `O=C(CCCCCCCNC(=O)c1ccc(N(c2ncccn2)c2ncccn2)cc1)NO` [4-(dipyrimidin-2-ylamino)-N-(8-(hydroxyamino)-8-oxooctyl)benzamide], the midpoint of inhibition, the IC50, lay at 110 nM.

The assay is the same for the next values; noted with them: read-out: IC50(nM) HDAC6; 2 ng/ml enzyme, 14 μM tripeptide substrate.
As to `O=C(CCCCCCNC(=O)c1cccc(C(O)(c2ccccn2)c2ccccn2)c1)NO` [N-(7-(hydroxyamino)-7-oxoheptyl)-3-(hydroxydipyridin-2-ylmethyl)benzamide], the IC50 was determined as 41 nM. For the compound `CC(O)(c1ccc(C(=O)NCCCCCCC(=O)NO)cc1)c1ccccn1` (stereo not shown) [4-(1-hydroxy-1-(pyridin-2-yl)ethyl)-N-(7-(hydroxyamino)-7-oxoheptyl)benzamide], the IC50 was determined as 7 nM.

As for `CN(c1ccccc1)c1ncc(C(=O)NCCCCCCC(=O)NO)cn1` [N-(7-(hydroxyamino)-7-oxoheptyl)-2-(methyl(phenyl)amino)pyrimidine-5-carboxamide], the IC50 amounted to 6 nM.

Consider `CC(C)c1ccccc1N(C)c1ncc(C(=O)NCCCCCCC(=O)NO)cn1` [N-(7-(hydroxyamino)-7-oxoheptyl)-2-((2-isopropylphenyl)(methyl)amino)pyrimidine-5-carboxamide], for which the concentration for half-maximal inhibition (IC50) came out at 7 nM.

On to `CN(c1ccc(C(=O)NCCCCCCC(=O)NO)cc1)c1nc2ccccc2o1` [4-(benzo[d]oxazol-2-yl(methyl)amino)-N-(7-(hydroxyamino)-7-oxoheptyl)benzamide], for which the half-inhibitory concentration (IC50) worked out at 11 nM. The same measure, in the same setting: the result for `O=C(CCCCCCNC(=O)c1ccc(N(c2ccccc2)c2cncnc2)cc1)NO` [N-(7-(hydroxyamino)-7-oxoheptyl)-4-(phenyl(pyrimidin-5-yl)amino)benzamide] reads 12 nM.

Turning to `CN(CCCCCCC(=O)NO)C(=O)c1ccc(N(C)c2nc3ccccc3o2)cc1` [4-(benzo[d]oxazol-2-yl(methyl)amino)-N-(7-(hydroxyamino)-7-oxoheptyl)-N-methylbenzamide], the half-maximal inhibitory concentration (IC50) stood at 107 nM. Still for that read-out and setting: the result for `COC(c1ccc(C(=O)NCCCCCCC(=O)NO)cc1)(c1ccc(F)cc1F)c1ccc(F)cc1F` [4-(bis(2,4-difluorophenyl)(methoxy)methyl)-N-(7-(hydroxyamino)-7-oxoheptyl)benzamide] reads 20 nM; that for `CN(c1ccc(C(=O)NCCCCCCC(=O)NO)cc1)c1ccccc1C(F)(F)F` [N-(7-(hydroxyamino)-7-oxoheptyl)-4-(methyl(2-(trifluoromethyl)phenyl)amino)benzamide], 3 nM. On to `CN(c1ccc(C(=O)NCCCCCCC(=O)NO)cc1)c1cnccn1` [N-(7-(hydroxyamino)-7-oxoheptyl)-4-(methyl(pyrazin-2-yl)amino)benzamide], for which the half-inhibitory concentration (IC50) was 21 nM. Still for that read-out and setting: the result for `CC(C)c1cccc(C(C)C)c1Nc1ncc(C(=O)N(C)CCCCCCC(=O)NO)cn1` [2-(2,6-diisopropylphenylamino)-N-(7-(hydroxyamino)-7-oxoheptyl)-N-methylpyrimidine-5-carboxamide] reads 51 nM. Same read-out and setting: the result for `O=C(CCCCCCNC(=O)c1cnc(N2CCc3ccccc3C2)nc1)NO` [2-(3,4-dihydroisoquinolin-2(1H)-yl)-N-(7-(hydroxyamino)-7-oxoheptyl)pyrimidine-5-carboxamide] reads 3 nM; that for `O=C(CCCCCCNC(=O)c1cnc(N2CCCCC2)nc1)NO` [N-(7-(hydroxyamino)-7-oxoheptyl)-2-(piperidin-1-yl)pyrimidine-5-carboxamide], 5 nM. On the same count and under the same terms, as for `CN(CCCCCCC(=O)NO)C(=O)c1ccc(C(C)(O)c2ccccn2)cc1` (stereo not shown) [4-(1-hydroxy-1-(pyridin-2-yl)ethyl)-N-(7-(hydroxyamino)-7-oxoheptyl)-N-methyl benzamide], the figure is 36 nM; as for `Cc1cccc(C)c1N(C)c1ccc(C(=O)N(C)CCCCCCC(=O)NO)c(F)c1` [4-((2,6-dimethylphenyl)(methyl)amino)-2-fluoro-N-(7-(hydroxyamino)-7-oxoheptyl)-N-methylbenzamide], 9 nM; as for `CN1CCN(c2ncc(C(=O)NCCCCCCC(=O)NO)cn2)C(c2ccccc2)C1` (stereo not shown) [N-(7-(hydroxyamino)-7-oxoheptyl)-2-(4-methyl-2-phenylpiperazin-1-yl)pyrimidine-5-carboxamide], 5 nM. With `CN(CCCCCCC(=O)NO)C(=O)c1ccc(C(O)(c2ccccc2)c2ccncc2)cc1` (stereo not shown) [4-(hydroxy(phenyl)(pyridin-4-yl)methyl)-N-(7-(hydroxyamino)-7-oxoheptyl)-N-methylbenzamide], the IC50 turned out to be 18 nM. For the compound `O=C(CCCCCCNC(=O)c1ccc(N(c2ccccc2)S(=O)(=O)c2ccccc2)cc1)NO` [N-(7-(hydroxyamino)-7-oxoheptyl)-4-(N-phenylphenylsulfonamido)benzamide], the half-maximal inhibitory concentration (IC50) amounted to 15 nM. Same read-out and setting: as for `O=C(CCCCCCNC(=O)c1ccc(N(c2ccccc2)c2ccccn2)cc1)NO` [N-(7-(hydroxyamino)-7-oxoheptyl)-4-(phenyl(pyridin-2-yl)amino)benzamide], the figure is 14 nM; as for `Cc1cccnc1N(c1ccccc1)c1ccc(C(=O)NCCCCCCC(=O)NO)cc1` [N-(7-(hydroxyamino)-7-oxoheptyl)-4-((3-methylpyridin-2-yl)(phenyl)amino) benzamide], 20 nM; as for `O=C(CCCCCCNC(=O)c1cnc(N2CCN(CCO)CC2)nc1)NO` [N-(7-(hydroxyamino)-7-oxoheptyl)-2-(4-(2-hydroxyethyl)piperazin-1-yl)pyrimidine-5-carboxamide], 13 nM. On the same count and under the same terms, as for `O=C(CCCCCCNC(=O)c1cnc(N2CCN(c3ccccc3)CC2)nc1)NO` [N-(7-(hydroxyamino)-7-oxoheptyl)-2-(4-phenylpiperazin-1-yl)pyrimidine-5-carboxamide], the figure is 4 nM; as for `Cc1cccc(C)c1Nc1cccc(C(=O)NCCCCCCC(=O)NO)c1` [3-(2,6-dimethylphenylamino)-N-(7-(hydroxyamino)-7-oxoheptyl)benzamide], 10 nM. Same read-out and setting: as for `CN(CCCCCCC(=O)NO)C(=O)c1ccc(N(c2ccccc2)c2ncccn2)cc1` [N-(7-(hydroxyamino)-7-oxoheptyl)-N-methyl-4-(phenyl(pyrimidin-2-yl)amino)benzamide], the figure is 18 nM. Regarding `O=C(CCCCCCNC(=O)c1ccc(N(c2ccccc2)c2cnccn2)cc1)NO` [N-(7-(hydroxyamino)-7-oxoheptyl)-4-(phenyl(pyrazin-2-yl)amino)benzamide], the 50% inhibitory concentration (IC50) amounted to 14 nM. Still for that read-out and setting: the result for `Cc1cccc(C)c1N(C)c1ccc(C(=O)NCCCCCCC(=O)NO)c(F)c1` [4-((2,6-dimethylphenyl)(methyl)amino)-2-fluoro-N-(7-(hydroxyamino)-7-oxoheptyl)benzamide] reads 5 nM. Still for that read-out and setting: as for `CC(=O)N(c1ccccc1)c1ccc(C(=O)NCCCCCCC(=O)NO)cc1` [N-(7-(hydroxyamino)-7-oxoheptyl)-4-(N-phenylacetamido)benzamide], the figure is 3 nM. The same measure, in the same setting: as for `CN(CCCCCCC(=O)NO)C(=O)c1ccc(C(O)(c2cc(F)cc(F)c2)c2cc(F)cc(F)c2)cc1` [4-(bis(3,5-difluorophenyl)(hydroxy)methyl)-N-(7-(hydroxyamino)-7-oxoheptyl)-N-methylbenzamide], the figure is 15 nM. As to `O=C(CCCCCCNC(=O)c1cnc(N(CCO)CC(c2ccc(F)cc2)c2ccc(F)cc2)nc1)NO` [2-((2,2-bis(4-fluorophenyl)ethyl)(2-hydroxyethyl)amino)-N-(7-(hydroxyamino)-7-oxoheptyl)pyrimidine-5-carboxamide], the IC50 came to 8 nM. Still for that read-out and setting: the result for `Cc1cccc(C)c1Nc1ccccc1C(=O)N(C)CCCCCCC(=O)NO` [2-(2,6-dimethylphenylamino)-N-(7-(hydroxyamino)-7-oxoheptyl)-N-methylbenzamide] reads 48 nM; that for `Cc1cccc(Cl)c1Nc1ccc(C(=O)N(C)CCCCCCC(=O)NO)cc1` [4-(2-chloro-6-methylphenylamino)-N-(7-(hydroxyamino)-7-oxoheptyl)-N-methylbenzamide], 11 nM.

With `Cc1cccc(C)c1Nc1ncc(C(=O)NCCCCCCC(=O)NO)cn1` [2-(2,6-dimethylphenylamino)-N-(7-(hydroxyamino)-7-oxoheptyl)pyrimidine-5-carboxamide], the IC50 came to 33 nM.

As to `CN(CCCCCCC(=O)NO)C(=O)c1ccc(C(O)(c2ccccc2F)c2ccccc2F)cc1` [4-(bis(2-fluorophenyl)(hydroxy)methyl)-N-(7-(hydroxyamino)-7-oxoheptyl)-N-methyl benzamide], the 50% inhibitory concentration (IC50) was found to be 9 nM. Still for that read-out and setting: as for `CN(CCCCCCC(=O)NO)C(=O)c1ccc(N(c2ccccc2)c2ccccc2)cc1` [4-(diphenylamino)-N-(7-(hydroxyamino)-7-oxoheptyl)-N-methylbenzamide], the figure is 82 nM; as for `CN(c1ccc(C(=O)NCCCCCCC(=O)NO)cc1)c1c(F)cccc1F` [4-((2,6-difluorophenyl)(methyl)amino)-N-(7-(hydroxyamino)-7-oxoheptyl) benzamide], 2 nM.

In the case of `Cc1cccc(C)c1N(c1ccc(C(=O)N(C)CCCCCCC(=O)NO)cc1)c1ncccn1` [4-((2,6-dimethylphenyl)(pyrimidin-2-yl)amino)-N-(7-(hydroxyamino)-7-oxoheptyl)-N-methylbenzamide], the IC50 is 24 nM. With `CN(CCCCCCC(=O)NO)C(=O)c1ccc(N(C)c2ccccc2C#N)cc1` [4-((2-cyanophenyl)(methyl)amino)-N-(7-(hydroxyamino)-7-oxoheptyl)-N-methylbenzamide], the IC50 stood at 35 nM. `O=C(CCCCCCNC(=O)c1ccc(Nc2c(F)cccc2F)cc1)NO` [4-(2,6-difluorophenylamino)-N-(7-(hydroxyamino)-7-oxoheptyl)benzamide]: the 50% inhibitory concentration (IC50) amounted to 3 nM.

For `Cc1cccc(C)c1Nc1ccc(C(=O)NCCCCCCC(=O)NO)cc1F` [4-(2,6-dimethylphenylamino)-3-fluoro-N-(7-(hydroxyamino)-7-oxoheptyl)benzamide], the IC50 came out at 4 nM. The same measure, in the same setting: as for `O=C(CCCCCCNC(=O)c1cnc(N2CCC[C@H]2CO)nc1)NO` [(S)-N-(7-(hydroxyamino)-7-oxoheptyl)-2-(2-(hydroxymethyl)pyrrolidin-1-yl)pyrimidine-5-carboxamide], the figure is 7 nM. Still for that read-out and setting: as for `COC(c1ccc(C(=O)N(C)CCCCCCC(=O)NO)cc1)(c1cccc(F)c1)c1cccc(F)c1` [4-(bis(3-fluorophenyl)(methoxy)methyl)-N-(7-(hydroxyamino)-7-oxoheptyl)-N-methyl benzamide], the figure is 47 nM.
